Test results taken from PMC10543509.

Sequences of proteins named here, by UniProt entry; tags and fusion partners are left off. Residues count along the entry.
UniProt P00533, 668-1210 L858R limits assumed: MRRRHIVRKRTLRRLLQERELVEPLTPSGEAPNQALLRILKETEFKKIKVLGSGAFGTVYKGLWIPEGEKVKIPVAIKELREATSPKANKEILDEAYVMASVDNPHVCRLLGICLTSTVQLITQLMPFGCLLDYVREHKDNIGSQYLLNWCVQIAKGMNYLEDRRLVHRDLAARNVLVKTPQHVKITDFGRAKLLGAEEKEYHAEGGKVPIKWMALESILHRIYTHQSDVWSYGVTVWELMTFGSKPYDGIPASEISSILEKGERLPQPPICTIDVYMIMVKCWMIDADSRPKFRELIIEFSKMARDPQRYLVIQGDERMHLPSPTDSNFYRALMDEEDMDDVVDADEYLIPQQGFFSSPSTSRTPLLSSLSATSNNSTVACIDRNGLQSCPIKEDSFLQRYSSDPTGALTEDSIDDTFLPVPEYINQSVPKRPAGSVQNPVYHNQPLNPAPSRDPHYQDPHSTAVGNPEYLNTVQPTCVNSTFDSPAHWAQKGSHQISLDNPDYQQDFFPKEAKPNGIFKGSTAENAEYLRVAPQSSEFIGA

Molecular target: EGFR [L858R] (LR) (Homo sapiens, UniProt P00533, L858R)
Details: read-out: LR

KI (inactivation): 610 nM
Compound: C=CC(=O)Nc1ccc(OC)c(Nc2cc(-c3[nH]c(CC)nc3-c3cccc(NC(=O)c4cccc5c4NC(=O)c4ccccc4N5)c3)ccn2)c1
